Measured values from PubChem BioAssay (Tox21).
Where “and” joins values, the source holds several entries; their conditions need not be identical. Equal entries are not always repeated. The entries are a selection whose mix differs from that of the whole data set. Records with an inconclusive call do not appear. Calls of active or inactive are those of the source. Calls come from the whole dose curve.

Assay: qHTS assay to identify small molecule agonists or antagonists of the thyroid stimulating hormone receptor (TSHR) signaling pathway - wild type cell line counter screen (AID 1259384)
Conditions: HEK293 wild type, cAMP HTRF counter-screen, stronger effect = higher value; at 92.4 µM (top of the series) unless noted
From the text: U.S. Tox21 Program National Center for Advancing Translational Sciences [NCATS] NIH Chemical Genomics Center [NCGC] U.S. Environmental Protection Agency [EPA] National Institutes of Environmental Health Sciences [NIEHS] National Toxicology Program [NTP] U.S. Food and Drug Administration [FDA] Tox21 Assay Overview: TSHR is the receptor for thyrotropin (thyroid stimulating hormone or TSH), a member of the glycoprotein hormone family. TSH is released by the anterior pituitary gland and is the main regulator of thyroid gland growth and development. Upon binding circulating thyrotropin, a G-protein signal cascade activates adenylyl cyclase and […] cAMP concentration is increased. cAMP is a key second messenger involved extensively in cellular signal transduction pathways associated with the majority of G-protein coupled receptors (GPCRs). The activation of these GPCRs by neurotransmitters, lipids, nucleotides, peptides and hormones results in the activation or the inhibition of plasma membrane-bound adenylate cyclase through heterotrimeric G-proteins. A cell-based TSHR-Hek293 assay can be used to identify TSHR agonists. To eliminate the false positive compounds identified from screening a cell-based TSHR-Hek293 cell line, cAMP assay in a wild type Hek293 cells was used as a counter screening.
Tox21 Assay Protocol Summary: Hek293 cells (wild type) were dispensed at 800 cells/4 uL/well in 1536-well white plates using a Multidrop dispenser. After the assay plates were incubated at a 37 C/5% CO2 incubator for 18 hrs, 23 nL of compounds dissolved in DMSO, positive controls or DMSO only was transferred to the assay plate by a pin tool, followed by 1 ul medium containing Ro20-1724. After 30 min of incubation at room temperature, 2.5 ul/well of cAMP-d2 and 2.5 ul/well of anti-cAMP-cryptate were added respectively into the assay plates using a Flying Reagent Dispenser. The plates were incubated at room temperature for 1 hr. The fluorescence intensity in the plates was measured using an Envision plate reader. Each test compound was measured at 15 concentrations and in triplicates.
% is set by controls: 0 for no effect and ±100 for the full control effect.

SMILES	cAMP activity change
CCOP(=S)(CC)Sc1ccccc1 (centres undefined)	inactive: -6.27%
COP(=S)(Cl)OC	inactive: 3.61%
O=P(Cl)(Oc1ccccc1)Oc1ccccc1	inactive: 5.18%
CCNC(C)Cc1ccc2c(c1)OCO2 (centres undefined)	inactive: -0.146%
CN(C(=O)Cc1ccccc1)[C@H]1CC[C@@]2(CCCO2)C[C@@H]1N1CCCC1	inactive: -1.01% [at 42.5 µM]
O=[As]c1ccccc1 (centres undefined)	inactive: -2.49%
CCCCOP(OCCCC)OCCCC	inactive: 0.108%
CCCCCCCCCCCCCC[P+](CCCCCC)(CCCCCC)CCCCCC	inactive: 0.106%
CCCCC(CC)CO[P+](=O)OCC(CC)CCCC (centres undefined)	inactive: -4.07%
O=C(Cl)Oc1ccccc1	inactive: 2.78%
N#CSc1ccc([N+](=O)[O-])cc1[N+](=O)[O-]	inactive: -0.196%
CN(C(=O)Cc1cccc2occc12)[C@H]1CC[C@@]2(CCCO2)C[C@@H]1N1CCCC1	inactive: 3.79%
O=P(Cl)(Cl)c1ccccc1	inactive: -0.71%
O=[P+](Oc1ccccc1)Oc1ccccc1	inactive: 2.36%
CN(N=O)C(=N)N[N+](=O)[O-]	inactive: -1.72%
CCCCO[P+](=O)OCCCC	inactive: -0.212% and inactive: 4.73%
CCOC(=O)Cl	inactive: 5.11%
CC(C)OP(=S)(OC(C)C)SCCNS(=O)(=O)c1ccccc1	inactive: 0.306%
Cc1cc([N+](=O)[O-])c(O)c([N+](=O)[O-])c1	inactive: 7.57%
CCC(C)(OOC(C)(C)C)OOC(C)(C)C	inactive: 3.01% [at 18.9 µM]
O=[N+]([O-])c1ccc(S(=O)(=O)O)c([N+](=O)[O-])c1	inactive: 3.18%
O=C1C2CC=CCC2C(=O)N1SC(Cl)(Cl)C(Cl)Cl (centres undefined)	inactive: -8.78% and inactive: -0.313%
O=[N+]([O-])c1ccc([N+](=O)[O-])cc1	inactive: 8.78%
O=[p+]1oc2ccccc2c2ccccc21 (centres undefined)	inactive: -8.57%
